# T1: biotinylated CRH (Homo sapiens, UniProt P06850)
# T1 construct: purchased GL Biochem 784751
# T1 sequence (P06850 154-194): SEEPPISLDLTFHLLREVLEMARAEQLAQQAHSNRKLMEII
# Legend:
# human CRHR2 = test: CRH-induced luciferase reporter blocking assay, CHO-CRE-hCRHR2 cells; format: cell-based; conditions: CHO-CRE-hCRHR2 cells, 0.1 nM CRH
# Protocol: (§1) To create CHO-CRE-hCRHR1, -hCRHR2, -mCRHR1, and -mCRHR2 reporter cell lines, pcDNA3.1-hCRHR1, -hCRHR2, -mCRHR1, and -mCRHR2 were introduced into CHO-CRE cells established above by electroporation as described above. Selection antibiotics hygromycin at 500 μg/ml and G418 at 1,000 μg/ml were employed. Individual established stable cell lines were characterized by both CRH and forskolin stimulation.
# Activated GPCR proteins increase production of the intracellular cAMP. CHO-CRE-human CRHR1 stable clone 11 was generated by introduction of pcDNA3.1-human CRHR1 under the selection of G418 and hygromycin. Human CRHR1 expression in CHO-CRE-hCRHR1 Clone 11 was confirmed by flow cytometry (data not shown). To further validate that the cell line was functional, CHO-CRE-hCRHR1 Clone 11 cells were treated with forskolin and CRH peptide. […] Subsequently CHO-CRE-hCRHR2 Clone 32, -mCRHR1 Clone 22, and -mCRHR2 Clone 8 cell lines were established using similar methodology and validated with CRH treatment (data not shown).
# Blocking CRHR1 by small molecules or neutralization of CRH peptide can reduce luciferase expression if the CRH-CRHR1 system works in CHO-CRE-hCRHR1 cells. Antalarmin, a small molecule CRHR1 antagonist, blocked CRH-mediated luciferase expression in CHO-CRE-hCRHR1 Clone 11 (data not shown). Furthermore, sheep anti-CRH polyclonal antibody reduced CRH-mediated luciferase expression in these cells (data not shown). Likewise, sheep anti-CRH polyclonal antibody blocked CRH-mediated luciferase expression in CHO-CRE-hCRHR2, CHO-CRE-mCRHR1, and CHO-CRE-mCRHR2 cells (data not shown).
# (§2) Cells were digested by trypsin-EDTA (Life technologies, Cat #:12604-013), centrifuged at 1,000 rpm for 5 min, resuspended in growth medium, counted using a cell counter, seeded at a concentration of 5,000 cells per 100 μl in 96-well flat plates, and incubated overnight. 50 μl of 4× serially diluted antibodies was added (8 points, 1/4 diluted by growth medium) to plates containing CHO-CRE-hCRHR1 cells, and 50 μl of 4×CRH (4× is 2 nM, final is 0.5 nM) was added. Similarly, 4×CRH (4× is 0.4 nM, final is 0.1 nM) was added to CHO-CRE-hCRHR2 cells and CHO-CRE-mCRHR1 cells, and 4×CRH (4× is 20 nM, final is 5 nM) was added to CHO-CRE-mCRHR2 cells. Next, plates were incubated 4-6 hours at 37° C. in a CO2 incubator. 60 μl of culture medium was removed, to which was added 60 μl of Bio-Glo luciferase, followed by incubation for 10 min at RT. Plates were read in a luciferase plate reader (EnVision, PerkinElmer).
# biotinylated CRH = biological target: T1, biotinylated CRH; test: Affinity determination with Octet; format: binding
# Protocol: Octet® Red 96e was used for affinity measurement. Octet® running buffer was prepared by diluting kinetics buffer 10× (Fortebio, Cat #18-1105) in PBS according to the manufacturer's instructions. Two columns of SA sensors (Fortebio, Cat #18-5019) were hydrated in running buffer for 10 mins, one for ligand capturing and the other for reference. Antibodies were 2-fold diluted and added into a 96-well plate. 30 nM biotinylated CRH (GL Biochem, Cat #784751) was captured by the first column of SA sensors for 20 seconds, while reference sensors were dipped into buffer wells. After a 60-second baseline step, sensors were dipped into analyte and buffer wells successively, with the association and dissociation time of 180 seconds and 800 seconds, respectively. Sensors were regenerated in glycine pH1.5 (Cytiva, Cat #BR-1003-54) before the next cycle. […] Signals of reference wells and reference sensors were subtracted by selecting “Double reference” before data fitting.
# mouse CRHR2 = test: CRH-induced luciferase reporter blocking assay, CHO-CRE-mCRHR2 cells; format: cell-based; conditions: CHO-CRE-mCRHR2 cells, 5 nM CRH
# Protocol: as §1, with “stimulation. […]” for “stimulation.”
# as §2
IC50 (human CRHR2) [nM],kdis (biotinylated CRH) [s⁻¹],kon (biotinylated CRH) [M⁻¹ s⁻¹],IC50 (mouse CRHR2) [nM],Molecule
2.64,4.47e-05,499000,,"PR006144: ΔPTM variant of Series 1 mAb PR004290; HCDR2 54EG55, LCDR1 36NP37 (antibody) heavy: EVQLVESGGVLVQPGGSLRLSCAASGFTFSSYWMTWVRQAPGKGLEWVANIKQEGSEKYYVDSVKGRFTISRDNAKNSLFLQMNSLRAEDTAVYYCARTLIFDYWGQGTLVTVSSASTKGPSVFPLAPSSKSTSGGTAALGCLVKDYFPEPVTVSWNSGALTSGVHTFPAVLQSSGLYSLSSVVTVPSSSLGTQTYICNVNHKPSNTKVDKKV[human IgG1 Fc not listed] light: DIVMTQSPLSLPVTPGEPASISCRSSQSLLHSTGYNPLEWYLQKPGQSPQLLIYLGSNRASGVPDRFSGSGSGTDFTLKISRVEAEDVGIYYCMQTLQTPITFGQGTRLEIKRTVAAPSVFIFPPSDEQLKSGTASVVCLLNNFYPREAKVQWKVDNALQSGNSQESVTEQDSKDSTYSLSSTLTLSKADYEKHKVYACEVTHQGLSSPVTKSFNRGEC"
,2.85e-05,457000,,PR006143 (antibody) heavy: EVQLVESGGVLVQPGGSLRLSCAASGFTFSSYWMTWVRQAPGKGLEWVANIKQEGSEKYYVDSVKGRFTISRDNAKNSLFLQMNSLRAEDTAVYYCARTLIFDYWGQGTLVTVSSASTKGPSVFPLAPSSKSTSGGTAALGCLVKDYFPEPVTVSWNSGALTSGVHTFPAVLQSSGLYSLSSVVTVPSSSLGTQTYICNVNHKPSNTKVDKKV[human IgG1 Fc not listed] light: DIVMTQSPLSLPVTPGEPASISCRSSQSLLHSTGYHSLEWYLQKPGQSPQLLIYLGSNRASGVPDRFSGSGSGTDFTLKISRVEAEDVGIYYCMQTLQTPITFGQGTRLEIKRTVAAPSVFIFPPSDEQLKSGTASVVCLLNNFYPREAKVQWKVDNALQSGNSQESVTEQDSKDSTYSLSSTLTLSKADYEKHKVYACEVTHQGLSSPVTKSFNRGEC
,6.75e-05,222000,,PR006145 (antibody) heavy: EVQLVESGGVLVQPGGSLRLSCAASGFTFSSYWMTWVRQAPGKGLEWVANIKQEGSEKYYVDSVKGRFTISRDNAKNSLFLQMNSLRAEDTAVYYCARTLIFDYWGQGTLVTVSSASTKGPSVFPLAPSSKSTSGGTAALGCLVKDYFPEPVTVSWNSGALTSGVHTFPAVLQSSGLYSLSSVVTVPSSSLGTQTYICNVNHKPSNTKVDKKV[human IgG1 Fc not listed] light: DIVMTQSPLSLPVTPGEPASISCRSSQSLLHSTGYSSLEWYLQKPGQSPQLLIYLGSNRASGVPDRFSGSGSGTDFTLKISRVEAEDVGIYYCMQTLQTPITFGQGTRLEIKRTVAAPSVFIFPPSDEQLKSGTASVVCLLNNFYPREAKVQWKVDNALQSGNSQESVTEQDSKDSTYSLSSTLTLSKADYEKHKVYACEVTHQGLSSPVTKSFNRGEC

# Continued, molecule first:
Molecule,IC50 (human CRHR2) [nM],kdis (biotinylated CRH) [s⁻¹],kon (biotinylated CRH) [M⁻¹ s⁻¹],IC50 (mouse CRHR2) [nM]
"PR005658: ΔPTM variant of Series 1 mAb PR004290; HCDR2 54DG55, LCDR1 36QS37 (antibody) heavy: EVQLVESGGVLVQPGGSLRLSCAASGFTFSSYWMTWVRQAPGKGLEWVANIKQDGSEKYYVDSVKGRFTISRDNAKNSLFLQMNSLRAEDTAVYYCARTLIFDYWGQGTLVTVSSASTKGPSVFPLAPSSKSTSGGTAALGCLVKDYFPEPVTVSWNSGALTSGVHTFPAVLQSSGLYSLSSVVTVPSSSLGTQTYICNVNHKPSNTKVDKKV[human IgG1 Fc not listed] light: DIVMTQSPLSLPVTPGEPASISCRSSQSLLHSTGYQSLEWYLQKPGQSPQLLIYLGSNRASGVPDRFSGSGSGTDFTLKISRVEAEDVGIYYCMQTLQTPITFGQGTRLEIKRTVAAPSVFIFPPSDEQLKSGTASVVCLLNNFYPREAKVQWKVDNALQSGNSQESVTEQDSKDSTYSLSSTLTLSKADYEKHKVYACEVTHQGLSSPVTKSFNRGEC",76.5,9.11e-05,509000,19.4
"PR005656: ΔPTM variant of Series 1 mAb PR004290; HCDR2 54EG55, LCDR1 36NS37 (antibody) heavy: EVQLVESGGVLVQPGGSLRLSCAASGFTFSSYWMTWVRQAPGKGLEWVANIKQEGSEKYYVDSVKGRFTISRDNAKNSLFLQMNSLRAEDTAVYYCARTLIFDYWGQGTLVTVSSASTKGPSVFPLAPSSKSTSGGTAALGCLVKDYFPEPVTVSWNSGALTSGVHTFPAVLQSSGLYSLSSVVTVPSSSLGTQTYICNVNHKPSNTKVDKKV[human IgG1 Fc not listed] light: DIVMTQSPLSLPVTPGEPASISCRSSQSLLHSTGYNSLEWYLQKPGQSPQLLIYLGSNRASGVPDRFSGSGSGTDFTLKISRVEAEDVGIYYCMQTLQTPITFGQGTRLEIKRTVAAPSVFIFPPSDEQLKSGTASVVCLLNNFYPREAKVQWKVDNALQSGNSQESVTEQDSKDSTYSLSSTLTLSKADYEKHKVYACEVTHQGLSSPVTKSFNRGEC",5.76,4.55e-05,,
"PR005662: ΔPTM variant of Series 1 mAb PR004290; HCDR2 54DA55, LCDR1 36QS37 (antibody) heavy: EVQLVESGGVLVQPGGSLRLSCAASGFTFSSYWMTWVRQAPGKGLEWVANIKQDASEKYYVDSVKGRFTISRDNAKNSLFLQMNSLRAEDTAVYYCARTLIFDYWGQGTLVTVSSASTKGPSVFPLAPSSKSTSGGTAALGCLVKDYFPEPVTVSWNSGALTSGVHTFPAVLQSSGLYSLSSVVTVPSSSLGTQTYICNVNHKPSNTKVDKKV[human IgG1 Fc not listed] light: DIVMTQSPLSLPVTPGEPASISCRSSQSLLHSTGYQSLEWYLQKPGQSPQLLIYLGSNRASGVPDRFSGSGSGTDFTLKISRVEAEDVGIYYCMQTLQTPITFGQGTRLEIKRTVAAPSVFIFPPSDEQLKSGTASVVCLLNNFYPREAKVQWKVDNALQSGNSQESVTEQDSKDSTYSLSSTLTLSKADYEKHKVYACEVTHQGLSSPVTKSFNRGEC",210,8.27e-05,396000,38.8
"PR006142: ΔPTM variant of Series 1 mAb PR004290; HCDR2 54EG55, LCDR1 36DS37 (antibody) heavy: EVQLVESGGVLVQPGGSLRLSCAASGFTFSSYWMTWVRQAPGKGLEWVANIKQEGSEKYYVDSVKGRFTISRDNAKNSLFLQMNSLRAEDTAVYYCARTLIFDYWGQGTLVTVSSASTKGPSVFPLAPSSKSTSGGTAALGCLVKDYFPEPVTVSWNSGALTSGVHTFPAVLQSSGLYSLSSVVTVPSSSLGTQTYICNVNHKPSNTKVDKKV[human IgG1 Fc not listed] light: DIVMTQSPLSLPVTPGEPASISCRSSQSLLHSTGYDSLEWYLQKPGQSPQLLIYLGSNRASGVPDRFSGSGSGTDFTLKISRVEAEDVGIYYCMQTLQTPITFGQGTRLEIKRTVAAPSVFIFPPSDEQLKSGTASVVCLLNNFYPREAKVQWKVDNALQSGNSQESVTEQDSKDSTYSLSSTLTLSKADYEKHKVYACEVTHQGLSSPVTKSFNRGEC",,4.08e-05,333000,
